Data set [1] has as its system HUVEC. Put plainly: Cytotoxicity against HUVEC cells assessed as reduction in cell viability at 0.0391 to 10 uM incubated for 72 hrs in presence of FK866 by CCK-8 assay. The class given is toxicity, cell-based. As to conditions: human, dose 0.0391-10 µM. A general note: Tetrazolium dyes change colour on reduction, which living cells bring about.
Data set [2] can be described thus: Toxicity in wild type Caenorhabditis elegans N2 at 100 uM by microscopic analysis.

In the case of `O=C(NCc1ccncc1)Nc1ccc(S(=O)(=O)NCc2cc(F)ccc2F)cc1`, the Activity entry in data set [1] and in data set [2] was “Non-Toxic” each time.

Values taken from ChEMBL document CHEMBL5518202, “Discovery of a Potent Nicotinamide Phosphoribosyltransferase Activator for Improving Aging-associated Dysfunctions” (J Med Chem, 2024).
